According to patent publication US8709385B2, “Poloxamer foamable pharmaceutical compositions with active agents and/or therapeutic cells and uses” (Foamix Ltd., priority 2008, dated 2014):

Assay: Solubility and gelling of salicylic acid in Poloxamer 188 solution
Assay type: physicochemical
Conditions: 0.25 gr. and 0.50 gr. in 12.5 gr.
From the text: In both vials, 1 & 2, there are 12.5 gr. of 20% Poloxamer 188/purified water stock solution (2.5 gr. Poloxamer 188+10 gr. purified water).

O=C(O)c1ccccc1O [Salicylic acid]
dissolution in 20% Poloxamer 188/purified water stock solution: completely dissolved
